Results taken from patent US20230118625A1 (TICAROS, published 2023).

Molecular target: actin (mouse, UniProt P60710 2-375)
Assay: confocal co-localization in CD99-KO T cells expressing the mutant, on anti-CD3-coated coverslips

- binding result: no binding
B1: CD99 Cyt mutant (mouse CD99 with cytoplasmic domain replaced by that of CD4), fluorescent protein fusion (receptor, not shown: large carriers)
chain: QKLISEEDLNSDDFNLGDALEDPNMKPTPKAPTPKKPSGGFDLEDALPGGGGGGAGEKPGNRPQPDPKPPRPHGDSGGISDSDLADAAGQGGGGAGRRGSGDEGGHGGAGGAEPEGTPQGLVPGVVAAVVAAVAGAVSSFVVRCRHRRR
notes: Expressed in CD99-KO mouse CD8 T cells; also called CD99Cyto-YFP
